{
  "source": "patent US9201062B2",
  "about": "“Predicting toxicity of a compound over a range of concentrations” (CELLOMICS, INC., priority 2011, dated 2015)",
  "test_system": "Reactive oxygen species (ROS) levels in cells",
  "assay": "Normalized ROS response over a range of concentrations compared with toxicity thresholds (FIGS. 6A, 6B)",
  "conditions": "range of concentrations up to 100 CMax; threshold = μ±(4×σ) of negative controls",
  "source_text": "Once imaging has been performed, automated image processing algorithms as are known in the art can be used in the imaging system to determine the measurements in the cell images.\nThe target i being evaluated was the normalized ROS response.\nwhere μ is the mean of the normalized non-hepatotoxic compound values and σ is the standard deviation of the normalized non-hepatotoxic compound values.\nAs noted above, for ROS, the upper threshold may be all that is needed. […] The difficulty in compound toxicity measurement because of non-unidirectional response and/or because of incorrect EC50/IC50 calculation from a dose-response curve are avoided by establishing toxicity thresholds based on the negative controls and by flagging a compound as toxic only if its response goes beyond the determined thresholds at any concentration.\nFor each target, the minimal coefficient K of the deviation value from the mean of the non-hepatotoxic compound data can be calculated to include all the non-hepatotoxic compounds values between μ+K×σ and μ−K×σ values. These values are set respectively as the upper and lower toxicity thresholds for the target. […]\nThe normalized values from the hepatotoxic compounds (or compounds of interest) are compared with the threshold value determined above. The compound toxicity is determined by verifying whether the normalized value of the compound is outside the threshold value(s). […]",
  "data": [
    {"smiles": "CN(CCOc1ccc(CC2SC(=O)NC2=O)cc1)c1ccccn1", "note": "(stereo not shown) [Rosiglitazone]", "values": [
      {"measurement": "normalized ROS response relative to upper and lower toxicity thresholds", "result": "between the upper and lower thresholds values"}
    ]}
  ]
}
